The target of this experiment is Protein farnesyltransferase (Homo sapiens, UniProt P49354+P49356). Briefly: In vitro inhibitory activity to reduce the human farnesyltransferase catalyzed incorporation of [3H]FPP into recombinant Ras-CVIM. It is filed as functional. The method, boiled down:
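Human FPTase, [3H]FPP incorporated into recombinant Ras-CVIM. Enzyme at 1 nM, or 10 pM for some compounds.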

The text below walks through data of ChEMBL document CHEMBL1134760, “Evaluation of amino acid-based linkers in potent macrocyclic inhibitors of farnesyl-protein transferase” (Bioorg Med Chem Lett, 2001).

One may read the IC50 as the concentration needed to halve the response being measured. `N#Cc1ccc2cc1Oc1ccc3cccc(c3c1)N1CC[C@H](NCc3cncn3C2)C1=O`: the IC50 was 3.5 nM.
